Patent US10172797B2, “Extruded extended release abuse deterrent pill” (Pharmaceutical Manufacturing Research Services, Inc., priority 2013, dated 2019)

Experiments:
[1] = Alcohol solubility tested (200 proof ethanol, 0.22 micrometer PTFE filter); format: physicochemical
Excerpt: The following table lists the relative solubility of exemplary components of a formulation. A number of different dyes are listed along with their solubility information taken from the various literature sources and tested experimentally (200 proof ethanol and filtered through a 0.22 micrometer PTFE filter).

[2] = cited from earlier work

O=S(=O)([O-])c1ccc(N=Nc2c(O)ccc3cc(S(=O)(=O)[O-])ccc23)cc1.[Na+].[Na+] [Yellow #6]
Yes: Alcohol Solubility (tested) [1] | Alcohol Solubility (Literature) [2] | Water Solubility [2]
